Assay [1] addresses Human immunodeficiency virus type 1 protease (Human immunodeficiency virus 1, UniProt Q72874). The assay is described as follows: Inhibition of HIV-1 proteinase was assayed in infected MT-4 cells. In kind it is cell-based, MT4.
Another assay relates to MT4. Nature of the assay: Compound was tested for inhibition of HIV-1 protease was assayed in infected MT-4 cells. The class given is functional, cell-based, Homo sapiens.

Among the data in ChEMBL document CHEMBL1129607, “Paracyclophanes: a novel class of water-soluble inhibitors of HIV proteinase” (J Med Chem, 1996) are Ki values, retold here.

The term Ki denotes a measure of affinity in units of concentration, obtained from inhibition or displacement. Higher therefore signals lower affinity. As for `CC(C)[C@@H]1NC(=O)[C@@H]([C@H](O)[C@H](Cc2ccccc2)NC(=O)OC(C)(C)C)NCc2ccc(cc2)OCCOCCOCCNC1=O`, the Ki in assay [1] came out at 12.6 nM.

On to `CC(C)[C@@H]1NC(=O)[C@@H]([C@H](O)[C@H](Cc2ccccc2)NC(=O)OC(C)(C)C)NCc2cccc(c2)OCCCCNC1=O`, for which the Ki in the assay on MT4 is 16.1 nM.
